From paper PMC7259758 (PLoS ONE, 2020)

System: phosphorylation of SR proteins
Assay: Western blot of nuclear extracts, phosphor-SR proteins
Settings: HCT116 and Rh18 cells, 4 h; SD6 10 μM, compound 1 10 μM, compound 2 5 μM, compound 3 10 μM

In the case of PF-562271, the “Effect on phosphorylation of SR proteins (immunoblot)” value is reported as “inhibited the phosphorylation of SR proteins in both HCT116 and Rh18 cells, but to a lesser extent than compound 1 or 2”.
